# In BindingDB's records for doi:10.1038/sj.bjp.0701367 (Kyoto University, 1997):
# The chains behind the UniProt entries cited, without tags or fusion partners. Where a name states a change or a piece, a line headed by the entry shows the natural chain unless it says otherwise.
# UniProt P32240: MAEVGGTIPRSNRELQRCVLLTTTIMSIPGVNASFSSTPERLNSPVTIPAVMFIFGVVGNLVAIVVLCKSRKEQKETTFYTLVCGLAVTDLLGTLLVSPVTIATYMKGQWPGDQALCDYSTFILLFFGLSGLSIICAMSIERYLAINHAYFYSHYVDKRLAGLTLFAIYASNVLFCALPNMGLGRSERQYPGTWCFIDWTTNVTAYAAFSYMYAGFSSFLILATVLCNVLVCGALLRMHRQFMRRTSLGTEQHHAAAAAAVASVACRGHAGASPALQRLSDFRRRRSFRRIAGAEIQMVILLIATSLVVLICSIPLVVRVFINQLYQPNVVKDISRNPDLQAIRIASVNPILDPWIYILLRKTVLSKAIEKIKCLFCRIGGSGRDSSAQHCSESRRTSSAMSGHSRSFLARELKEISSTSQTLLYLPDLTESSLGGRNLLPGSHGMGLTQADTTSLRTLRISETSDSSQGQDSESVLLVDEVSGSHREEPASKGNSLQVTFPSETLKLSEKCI
# Target: Prostaglandin E2 receptor EP4 subtype (Mus musculus, UniProt P32240)
structure (smiles),measurement,value
CCCCC[C@H](O)/C=C/[C@H]1[C@H](O)CC(=O)[C@@H]1C/C=C\CCCC(=O)O [DINOPROSTONE],pKi,8.72

# pKi: −log10 of the molar value.
